According to patent publication US10221162B2, “Triazole agonists of the APJ receptor” (priority 2015, dated 2019):

Experiments:
[1] = target: human APJ receptor expressed in the CHO cell line (Homo sapiens (Human), UniProt P35414); conditions: different concentrations of AngII with fixed concentration of pyr apelin-13; human APJ receptor expressed alone in CHO
Protocol: (§1) The function of the inositol phosphate accumulation (IP1) was measured by Time-resolved fluorescence resonance energy (TR-FRET) at 620 nm and 665 nm respectively.

[2] = target: human APJ-AT1R (angiotensin Type 1) double stable CHO cell line (Homo sapiens (Human), UniProt P30556+P35414); conditions: different concentrations of AngII with fixed concentration of pyr apelin-13
Protocol: as §1

pyroglutamated apelin-13 [pyr apelin-13]
positive cooperativity (IP1 accumulation) [1]: no positive cooperativity observed
positive cooperativity on AT1R (IP1 accumulation) [2]: induces the positive cooperativity on the AT1R
